Results from patent US7960584B2, “Compounds, isomer thereof, or pharmaceutically acceptable salts thereof as vanilloid receptor antagonist; and pharmaceutical compositions containing the same” (Amorepacific Corporation, priority 2005, dated 2011).

Chains of the proteins cited; added tags and fusions are not shown.
UniProt O35433, whole entry: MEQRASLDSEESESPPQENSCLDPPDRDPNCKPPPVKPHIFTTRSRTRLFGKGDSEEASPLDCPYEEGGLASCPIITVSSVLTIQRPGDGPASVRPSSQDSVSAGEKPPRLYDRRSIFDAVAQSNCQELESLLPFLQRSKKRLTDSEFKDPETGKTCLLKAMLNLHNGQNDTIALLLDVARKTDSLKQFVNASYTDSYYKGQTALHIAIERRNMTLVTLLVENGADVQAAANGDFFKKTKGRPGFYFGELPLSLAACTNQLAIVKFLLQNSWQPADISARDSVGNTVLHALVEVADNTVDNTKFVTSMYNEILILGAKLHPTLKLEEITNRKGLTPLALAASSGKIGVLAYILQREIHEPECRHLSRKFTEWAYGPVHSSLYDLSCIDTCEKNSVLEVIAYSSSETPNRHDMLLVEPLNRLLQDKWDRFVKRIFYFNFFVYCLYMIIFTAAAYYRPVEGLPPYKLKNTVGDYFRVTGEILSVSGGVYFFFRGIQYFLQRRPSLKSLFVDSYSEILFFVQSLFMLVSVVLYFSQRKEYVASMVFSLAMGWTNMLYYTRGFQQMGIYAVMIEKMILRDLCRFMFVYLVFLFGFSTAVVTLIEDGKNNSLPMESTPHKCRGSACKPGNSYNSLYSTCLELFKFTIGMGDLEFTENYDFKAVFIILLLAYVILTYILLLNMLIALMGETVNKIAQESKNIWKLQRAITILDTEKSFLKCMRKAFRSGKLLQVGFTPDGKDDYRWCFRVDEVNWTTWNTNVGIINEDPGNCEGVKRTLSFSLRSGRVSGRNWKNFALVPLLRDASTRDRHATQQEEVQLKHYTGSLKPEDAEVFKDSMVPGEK

Target: T1, vanilloid receptor (Rattus norvegicus, UniProt O35433)
T1 construct: DRG nerve cells from the primary culture of 2 days were equilibrated; endogenous in cells; host or cells: primary culture of dorsal root ganglion neurons from neonatal SD rats
Assay: 45Ca influx test in primary cultured DRG neurons (capsaicin-induced calcium uptake)
Format: cell-based
Settings: neonatal SD rat DRG neurons; capsaicin 0.5 μM; 45Ca 10 μCi/ml; 10 min at room temperature
Protocol: 1) Separation of Spinal Dorsal Root Ganglia (DRG) in Newborn Rats and Primary Culture Thereof
Neonatal (2-3 day old or younger than 2-3 day old) SD rats were put in ice for 5 minutes to anesthetize and disinfected with 70% ethanol. DRG of all part of spinal cord were dissected (Wood et al., 1988, J. Neurosci. 8, pp 3208-3220) and collected in DME/F12 medium to which 1.2 g/l sodium bicarbonate, 50 mg/l gentamycin were added. The DRG were incubated sequentially at 37° C. for 30 min in 200 U/ml collagenase and 2.5 mg/ml trypsin, separately. The ganglia were washed twice with DME/F12 medium supplemented with 10% horse serum, triturated through a fire-polished Pasteur pipette, filtered through Nitex 80 membrane to obtain single cell suspension and the suspension was washed once more. This was subjected to centrifugation, then resuspended in cell culture medium at certain level of cell density. […]
DRG nerve cells from the primary culture of 2 days were equilibrated by washing 4 times with HEPES (10 mM, pH 7.4)-buffered Ca^2+, Mg^2+-free HBSS (H-HBSS). […] After the addition of scintillation cocktail of into each well, the amount of ^45Ca influx into neuron was measured by counting radioactivity.

`CC(C)(C)c1ccc(C=CC(=O)NCc2ccc(NS(C)(=O)=O)c(F)c2)cc1` [Example 1, 3-[4-t-butyl-phenyl]-N-[3-fluoro-4-methanesulfonylamino-benzyl]acrylamide] showed a pIC50 of 6.31.

pIC50: −log10 of the molar value.
